{"source": "ChEMBL document CHEMBL4049404", "about": "“Discovery of (R)-1-(3-(4-Amino-3-(3-chloro-4-(pyridin-2-ylmethoxy)phenyl)-1H-pyrazolo[3,4-d]pyrimidin-1-yl)piperidin-1-yl)prop-2-en-1-one (CHMFL-EGFR-202) as a Novel Irreversible EGFR Mutant Kinase Inhibitor with a Distinct Binding Mode” (J Med Chem, 2017)", "key": {"[1]": {"biological_target": "T1, Epidermal growth factor receptor (Homo sapiens, UniProt P00533)", "experiment": "Binding affinity to wild-type human EGFR expressed in bacterial system assessed as control score at 1 uM by KINOMEScan assay", "format": "ADME", "settings": "read-out: Activity"}, "[2]": {"biological_target": "Epidermal growth factor receptor (Homo sapiens, UniProt P00533, T790M)", "experiment": "Inhibition of recombinant human GST-tagged EGFR T790M mutant cytoplasmic domain (668 to 1210 residues) expressed in baculovirus by Z'-LYTE assay"}, "[3]": {"biological_target": "T1, Epidermal growth factor receptor", "experiment": "Inhibition of wild-type EGFR (unknown origin) autophosphorylation at Y1068 expressed in mouse BAF3 cells after 4 hrs by Western blot analysis", "format": "ADME, cell-based"}, "[4]": {"biological_target": "T1, Epidermal growth factor receptor", "experiment": "Inhibition of wild-type EGFR in human H1703 cells assessed as growth inhibition after 72 hrs by CellTiter-Glo assay", "format": "cell-based"}, "[5]": {"system": "Epidermal growth factor receptor (Homo sapiens), P00533 [L858R]"}, "[6]": {"system": "Epidermal growth factor receptor (Homo sapiens), P00533 [UNDEFINED MUTATION]"}, "[7]": {"system": "Epidermal growth factor receptor (Homo sapiens), P00533 [C797S]"}, "[8]": {"system": "Epidermal growth factor receptor (Homo sapiens), P00533 [C797S,L858R]"}, "[9]": {"system": "Epidermal growth factor receptor (Homo sapiens), P00533 [T790M,C797S]"}, "[10]": {"system": "Epidermal growth factor receptor (Homo sapiens), P00533 [UNDEFINED MUTATION]", "remark": "listed apart in the source"}, "[11]": {"system": "Epidermal growth factor receptor (Homo sapiens), P00533 [L858R,T790M,C797S]"}, "[12]": {"system": "Epidermal growth factor receptor (Homo sapiens), P00533 [L858R,T790M]"}, "[13]": {"system": "Epidermal growth factor receptor (Homo sapiens), P00533 [L858R,T790M]", "settings": "100 nM"}, "[14]": {"system": "Epidermal growth factor receptor (Homo sapiens), P00533 [L858R,T790M]", "settings": "100 nM", "remark": "listed apart in the source"}, "[15]": {"system": "Epidermal growth factor receptor (Homo sapiens), P00533 [UNDEFINED MUTATION]", "settings": "100 nM"}, "[16]": {"system": "Epidermal growth factor receptor (Homo sapiens), P00533 [UNDEFINED MUTATION]", "settings": "100 nM", "remark": "listed apart in the source"}, "[17]": {"system": "Epidermal growth factor receptor (Homo sapiens), P00533 [UNDEFINED MUTATION]", "settings": "0.01 to 3 uM"}, "[18]": {"system": "Epidermal growth factor receptor (Homo sapiens), P00533 [UNDEFINED MUTATION]", "settings": "0.01 to 3 uM", "remark": "listed apart in the source"}, "[19]": {"system": "Epidermal growth factor receptor (Homo sapiens), P00533 [L858R,T790M]", "settings": "0.01 to 3 uM"}, "[20]": {"system": "Epidermal growth factor receptor (Homo sapiens), P00533 [L858R]", "settings": "0.01 to 3 uM"}}, "note": "Calls of active or inactive are those of the source. The calls are words filed in the database; no cut-off is given here.", "data": [{"compound": "C=CC(=O)N1CCC[C@@H](n2nc(-c3ccc(OCc4ccccn4)c(Cl)c3)c3c(N)ncnc32)C1", "values": [{"measurement": "activity at 1 µM", "setting": "[1]", "value": 0.7, "unit": "%"}, {"measurement": "IC50", "setting": "[2]", "value": 5.3, "unit": "nM"}, {"measurement": "EC50", "setting": "[3]", "value": 70, "unit": "nM"}, {"measurement": "GI50", "setting": "[4]", "value": 8300, "unit": "nM"}, {"measurement": "GI50", "setting": "[5]", "value": 75, "unit": "nM"}, {"measurement": "GI50", "setting": "[6]", "value": 4, "unit": "nM"}, {"measurement": "GI50", "setting": "[7]", "value": 4600, "unit": "nM"}, {"measurement": "GI50", "setting": "[8]", "value": 5700, "unit": "nM"}, {"measurement": "GI50", "setting": "[9]", "value": 2300, "unit": "nM"}, {"measurement": "GI50", "setting": "[10]", "value": 4, "unit": "nM"}, {"measurement": "GI50", "setting": "[11]", "value": 7900, "unit": "nM"}, {"measurement": "GI50", "setting": "[12]", "value": 5, "unit": "nM"}, {"measurement": "inhibition", "setting": "[13]", "value": "Active"}, {"measurement": "inhibition", "setting": "[14]", "value": "Active"}, {"measurement": "inhibition", "setting": "[15]", "value": "Active"}, {"measurement": "inhibition", "setting": "[16]", "value": "Active"}, {"measurement": "inhibition", "setting": "[17]", "value": "Active"}, {"measurement": "inhibition", "setting": "[18]", "value": "Active"}, {"measurement": "inhibition", "setting": "[19]", "value": "Active"}, {"measurement": "inhibition", "setting": "[20]", "value": "Active"}]}]}
